Experimental data published in PMC11676982, “Heterotropic Activation of Cytochrome P450 3A4 by Perillyl Alcohol” (Pharmaceutics, 2024).

System: CYP isoforms (CYP1A2, CYP2A6, CYP2B6, CYP2C8, CYP2C9, CYP2C19, CYP2D6, CYP2E1, and CYP3A4)
Assay: Direct CYP inhibition assay in pooled HLMs, nine CYP isoforms (summary statement)
Details: up to 50 μM

Substance: limonene [LMN]
- Inhibition of activities of CYP isoforms (words): not significantly inhibited
